Screens from PubChem BioAssay.
Rows were chosen to be rich in hits. Some 13% of all compounds tested hit in one or more screens of this group.
KDM4E inh – inhibitors of human JMJD2E histone demethylase | Potency, µM (titrated, usually from 57.1 µM), for inactives: at the highest dose activity change, negative = inhibition, most hits filed as inhibitors | 230,000 tested, 1.6% active | JMJD2E catalytic domain, FDH-coupled NADH fluorescence (FDH is formaldehyde dehydrogenase);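 further: potency means the concentration at half of the fitted maximal effect; 0% = wells with enzyme and -100% = buffer wells without enzyme; nearly all actives have a fitted effect of over 50% in size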
Sfp PPTase inh – inhibitors of Bacillus subtilis Sfp phosphopantetheinyl transferase. Q9F4F7. Biochemical Sfp PPTase activity, qHTS. Potency, µM, for the others: max response, negative = inhibition, most hits filed as inhibitors. actives 3.5% (n = 310,000). AID 1490; active means well fitted inhibition curve with a large enough effect; inconclusive means small, poorly fitted or top-dose-only effect, or another doubt; inactive means no such curve, though single readings can be large or run the other way;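 further: the enzyme is Sfp with the accession as filed and its product quenches rhodamine fluorescence; potency means the concentration at half of the fitted maximal effect; 0% = enzyme reaction without inhibitor and -100% = no enzyme wells; top concentration of the series not given in the record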
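Reaction rates are the 30-min fluorescence difference (ex 525, em 598 nm) in wells containing 15 nM Sfp, 5 uM rhodamine-CoA and 12.5 uM BHQ-2-YbbR at pH 7.6 with 10 mM MgCl2.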
G9a inh – blocks human histone lysine methyltransferase G9a. Q96KQ7. G9a H3K9 monomethylation, AlphaScreen, 2 h. Potency, µM (top dose mostly 102 µM), for inactives: at the top dose activity, negative = inhibition, hits mostly inhibitors. 350,000 tested, 8.8% active; further: potency means the concentration at half of the fitted maximal effect; on the % scale 0 is the no-effect control and ±100 the full control effect; nearly all actives have a fitted effect of over 75% in size
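Readings reflect AlphaScreen signal from monomethyl-H3K9 antibody detection. HMT at 20 nM; substrate b-H3K9 500 nM; cofactor SAM 20 uM; 2 h RT reaction; compounds tested as titrations in qHTS with 15 min preincubation.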
ALDH1A1 block – blocks purified human ALDH1A1 activity; P00352; Purified ALDH1A1, NADH fluorescence, propionaldehyde substrate; Potency, µM (series often up to 75.3 µM), for inactives: top-dose activity, negative = inhibition, usual class: inhibitors; 220,000 tested, 7.3% active; AID 1030; active means well fitted inhibition curve with a large enough effect, not every such curve was filed as active; inconclusive means small, poorly fitted or top-dose-only effect, or another doubt; inactive means no such curve, though single readings can be large or run the other way;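 further: potency means the concentration at half of the fitted maximal effect; plate controls were no enzyme wells and a reference inhibitor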
miR-21 FLuc – miR-21 reporter, rising signal. HeLa miR-21 FLuc reporter, luciferase, 48 h. Potency, µM (titrated, usually from 38.3 µM), without a hit: at the top dose reporter change, positive = more light. 340,000 tested, under 10 active. AID 2288; active = well fitted rising curve with a large enough effect; inconclusive = small, poorly fitted or top-dose-only effect; inactive = no such curve, though single readings can be large or run the other way;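 also: % of control where 0% means no effect; miR-21 action dims this reporter so a rising signal means less miR-21 action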
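HeLa cells endogenously expressing miR-21, stably carrying CMV-driven firefly luciferase with a downstream miR-21 binding site, 2000 cells/well. Titrations up to approximately 40 uM, 48 hours; luciferase luminescence read.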
Lamin A splicing – LMNA splicing modulation; HeLa LMNA splicing GFP/RFP minigene ratio, 48 h; Potency, µM (doses to about 46.1 µM), without a hit: at the top dose ratio change, negative = inhibition, usual class: inhibitors; 200,000 tested, 0.01% active; AID 1487; active means well fitted inhibition curve with a large enough effect in the signal ratio, with a control signal flat, not every such curve was filed as active; inconclusive means small, poorly fitted or top-dose-only effect, or effect the other way, or a change in a side signal; the % refers to the signal ratio; further: potency means the concentration at half of the fitted maximal effect; on the % scale 0 is the no-effect control and ±100 the full control effect
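Read-out is the ratio of GFP to DsRed2 object intensity, acquired by 488 nm laser-scanning cytometry on HeLa lamin A-EGFP minigene reporter cells. Compound incubation 48 hrs at 37 °C in Opti-MEM with 2% FBS; DMSO 0.5% final.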
An asterisk follows results filed as active; u = inconclusive; x = no result given; ! = not active in a repeat; [ ] = another dose, or the depositor's remark. Unless noted, the call rests on the fitted dose curve; in most records, active means well fitted curve in the direction sought with a large enough effect; inconclusive means small, poorly fitted or top-dose-only effect, or another doubt; inactive means no such curve, though single readings can be large; an effect the other way counts as inactive or inconclusive.

KDM4E inh	Sfp PPTase inh	G9a inh	structure	ALDH1A1 block	miR-21 FLuc	Lamin A splicing
-1.2%	21.5%	10µM*	S=c1[nH]nc(-c2ccncc2)n1Cc1ccccc1	-11.9%	-7.5%	7.4%
x	x	2.7%[0.501 µM]	FC(F)C(F)(F)Oc1cccc(-c2n[nH]c(=S)n2Cc2ccccc2)c1	x	x	x
3.6%	-9.7%	-135.7%[59 µM]	Cn1c(-c2csc(-c3ccccc3)n2)n[nH]c1=S	-9.5%	-53.5%	x
u	-34.1%	1.26µM*	S=c1[nH]nc(-c2cccnc2)n1Cc1ccccc1	14.1µM*	-11.1%	-1.8%
x	x	-42.9%[59 µM]	COc1cccc(NC(=O)Cn2nnc(-c3nc(-c4ccccc4)no3)c2N)c1	x	-33.5%	-13.9%[46 µM]
x	-11.1%	x	COc1cc(S(=O)(=O)n2cnc3ccccc32)ccc1Br	x	-1.5%	x
82.9%	-28.7%	5.01µM*	NC(=O)NC(=O)CC1S/C(=N/N=C2/NC(=O)CS2)NC1=O (stereo not drawn)	0.8%	1.1%	-11.3%[46 µM]
5.5%	3.98µM*	-26.9%	O=C(O)CNC(=O)CC1S/C(=N/N=C2\CSC(=O)N2)NC1=O (stereo not drawn)	16.9%	3.0%	x
x	x	-17.9%[0.501 µM]	COc1ccc(-c2oc(=O)c3cc(OC)c(OC)cc3c2/C=C/c2cccc([N+](=O)[O-])c2)cc1	x	x	x
u	1.1%	50.1µM*	CCOCCCNCC(=O)Nc1ccc(OC(F)(F)F)cc1	u	-4.4%	18.6%
-19.7%	u	-22.7%[12.7 µM]	CCN1CCCC1CNCC(=O)Nc1ccc(OC(F)(F)F)cc1 (stereo not drawn)	x	-6.2%	x
u	-16.2%	22.4µM*	COCCNCC(=O)Nc1ccc(OC(F)(F)F)cc1	-5.0%	-8.2%	-1.8%[9.22 µM]
u	50.1µM*	0.3%[59 µM]	Cc1cccc(-c2cc3nc4c(c(NCc5ccco5)n3n2)CCCC4)c1	u	-55.5%	u
-5.8%	x	31.6µM*	N#CC(=C(\N)Sc1ccccc1N)/C(C#N)=C(/N)Sc1ccccc1N	x	x	u
-11.4%	-7.5%	u	O=C(O)c1cccc2c1C(=O)c1ccccc1C2=O	u	0.2%	-16.6%[46 µM]
2.8%	-7.1%	10µM*	Nc1c(Cl)cc2c(c1Oc1ccccc1)C(=O)c1ccccc1C2=O	-8.1%	-61.1%	8.4%
x	-0.9%	u	CN(C)c1ccc(C(=O)C(=O)c2ccccc2)cc1	x	-38.3%	x
x	50.1µM*	11.2µM*	CN(C)c1ccc(C(=C2C=CC(=[N+](C)C)C=C2)c2ccccc2)cc1	8.91µM*!	x	u
u	44.7µM*!	u	CN(C)c1ccc(C(=C2C=CC(=[N+](C)C)C=C2)c2ccc(N(C)C)cc2)cc1	-4.2%	x	x
-5.4%	25.2%	4.6%	COc1ccc(S(=O)(=O)NCCN2CCNC2=O)cc1OC	7.6%	-3.8%	-1.2%[46 µM]
u	11.9%	50.1µM*	CCOc1ccc(-c2nc(C#N)c(N3CCN(CC)CC3)o2)cc1	u	-7.3%	-8.8%
u	15.7%	-27.3%[12.7 µM]	CCOc1ccc(-c2nc(C#N)c(N3CCN(C)CC3)o2)cc1	u	-13.0%	11.5%
u	u	7.94µM*	CCOc1ccc(-c2nc(C#N)c(N3CCCCCC3)o2)cc1	u	-14.6%	u
x	6.7%	-15.9%	Cc1cccc(N(C(=O)c2csnn2)C(C(=O)NCc2ccccc2)c2ccc(C)o2)c1 (stereo not drawn)	x	8.1%	x
-3.7%	15.0%	u	COc1ccc(CNC(=O)C(c2ccc(C)o2)N(C(=O)c2csnn2)c2ccc(C(C)C)cc2)cc1 (stereo not drawn)	2µM*	12.3%	-13.4%

Compounds above that contain an NH in an aromatic ring (four):
KDM4E inh	Sfp PPTase inh	G9a inh	structure	ALDH1A1 block	miR-21 FLuc	Lamin A splicing
-1.2%	21.5%	10µM*	S=c1[nH]nc(-c2ccncc2)n1Cc1ccccc1	-11.9%	-7.5%	7.4%
x	x	2.7%[0.501 µM]	FC(F)C(F)(F)Oc1cccc(-c2n[nH]c(=S)n2Cc2ccccc2)c1	x	x	x
3.6%	-9.7%	-135.7%[59 µM]	Cn1c(-c2csc(-c3ccccc3)n2)n[nH]c1=S	-9.5%	-53.5%	x
u	-34.1%	1.26µM*	S=c1[nH]nc(-c2cccnc2)n1Cc1ccccc1	14.1µM*	-11.1%	-1.8%

Remaining list, next part.
KDM4E inh	Sfp PPTase inh	G9a inh	structure	ALDH1A1 block	miR-21 FLuc	Lamin A splicing
-1.1%	u	28.7%[59 µM]	CCc1ccc(N(C(=O)c2csnn2)C(C(=O)NCc2ccccc2)c2ccco2)cc1 (stereo not drawn)	7.94µM*	-3.9%	3.9%
x	13.7%	5.3%	COc1ccc(CC(O)COS(N)(=O)=O)cc1 (stereo not drawn)	x	-1.9%	x
12.8%	56.2µM*	u	O=C(CN1CC(=O)Oc2ccccc21)NCc1ccco1	u	-20.3%	5.6%
1.7%	8.3%	u	O=C(CN1CCOc2ccccc21)NCc1ccc(F)cc1	-0.2%	-14.4%	u
